# Literature values, collected in patent US20080275058A1, “N-Substituted-1H-Quinoline-2,4-Diones, Preparation Method Thereof, And Pharmaceutical Composition Containing The Same” (KOREA RESEARCH INSTITUTE OF CHEMICAL TECHNOLOGY, priority 2005, published 2008).
# Sequences of proteins named here, by UniProt entry; tags and fusion partners are left off.
# UniProt P50406, whole entry: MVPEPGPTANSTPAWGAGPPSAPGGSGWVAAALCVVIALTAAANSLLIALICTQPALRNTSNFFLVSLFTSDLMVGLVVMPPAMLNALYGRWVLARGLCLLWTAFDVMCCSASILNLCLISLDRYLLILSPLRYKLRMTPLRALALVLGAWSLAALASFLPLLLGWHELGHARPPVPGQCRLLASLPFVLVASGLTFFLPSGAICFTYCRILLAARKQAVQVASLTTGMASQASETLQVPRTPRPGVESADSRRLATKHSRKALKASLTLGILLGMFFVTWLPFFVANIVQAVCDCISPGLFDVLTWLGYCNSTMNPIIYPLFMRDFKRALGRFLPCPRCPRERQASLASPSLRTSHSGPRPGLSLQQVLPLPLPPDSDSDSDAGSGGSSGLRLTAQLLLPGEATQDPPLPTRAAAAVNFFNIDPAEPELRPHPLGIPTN
# Assays:
# 5-HT6 receptors [1] = target: T1, 5-HT6 receptors (Homo sapiens, UniProt P50406); settings: read-out: Ki at 5-HT6 receptors; background literature; cited from earlier work
# [2] = system: other 5-HT receptors and other receptor/binding sites; settings: background literature; cited from earlier work
# 5-HT6 receptors [3] = target: T1, 5-HT6 receptors; settings: background literature; cited from earlier work
# [4] = background literature; cited from earlier work
smiles,measurement,setting,value
COc1ccc(NS(=O)(=O)c2ccc(Br)cc2)cc1N1CCN(C)CC1,Ki,5-HT6 receptors [1],5 nM
same,affinity for 50 other receptor/binding sites,[2],no measurable affinity
same,selectivity over 10 other 5-HT receptors,[2],> 50 fold
same,"pKb, antagonist of cAMP accumulation",5-HT6 receptors [3],7.8
same,brain penetrant,[4],25%
same,"clearance and bioavailability, in words",[4],rapid blood clearance resulting in low bioavailability
